Results from the NIST ThermoML archive (doi:10.1021/je7005727).

Assays:
[1] = xn = mol fraction of the nth substance listed; settings: 101 kPa, Liquid
[2] = 101.33 kPa, Liquid; for speed of sound: Sing-around technique in a fixed-path interferometer

CCCCOCCCC [dibutyl ether] + CCCCO
[1]
Settings | mass density [kg/m3]
293.15 K, x2 = 0.0547 | 770.042
293.15 K, x2 = 0.1046 | 771.461
293.15 K, x2 = 0.1516 | 772.81
293.15 K, x2 = 0.2005 | 774.247
293.15 K, x2 = 0.2514 | 775.785
293.15 K, x2 = 0.3016 | 777.369
293.15 K, x2 = 0.3518 | 779.033
293.15 K, x2 = 0.4012 | 780.726
293.15 K, x2 = 0.4519 | 782.556
293.15 K, x2 = 0.5008 | 784.403
293.15 K, x2 = 0.5997 | 788.444
293.15 K, x2 = 0.65 | 790.668
293.15 K, x2 = 0.6984 | 792.9
293.15 K, x2 = 0.7464 | 795.233
293.15 K, x2 = 0.8488 | 800.592
293.15 K, x2 = 0.898 | 803.384
293.15 K, x2 = 0.9493 | 806.449
298.15 K, x2 = 0.0517 | 765.646
298.15 K, x2 = 0.1047 | 767.168
298.15 K, x2 = 0.1499 | 768.464
298.15 K, x2 = 0.2024 | 770.022
298.15 K, x2 = 0.2519 | 771.537
298.15 K, x2 = 0.2992 | 773.045
298.15 K, x2 = 0.354 | 774.86
298.15 K, x2 = 0.3987 | 776.425
298.15 K, x2 = 0.4511 | 778.326
298.15 K, x2 = 0.5037 | 780.345
298.15 K, x2 = 0.5514 | 782.295
298.15 K, x2 = 0.5983 | 784.258
298.15 K, x2 = 0.6481 | 786.487
298.15 K, x2 = 0.6993 | 788.884
298.15 K, x2 = 0.7489 | 791.361
298.15 K, x2 = 0.8004 | 794.002
298.15 K, x2 = 0.8501 | 796.724
298.15 K, x2 = 0.8974 | 799.453
298.15 K, x2 = 0.9492 | 802.596
303.15 K, x2 = 0.0544 | 761.363
303.15 K, x2 = 0.1019 | 762.717
303.15 K, x2 = 0.1509 | 764.148
303.15 K, x2 = 0.2038 | 765.743
303.15 K, x2 = 0.2505 | 767.184
303.15 K, x2 = 0.3025 | 768.842
303.15 K, x2 = 0.3542 | 770.576
303.15 K, x2 = 0.3972 | 772.093
303.15 K, x2 = 0.4501 | 774.032
303.15 K, x2 = 0.5002 | 775.97
303.15 K, x2 = 0.5493 | 777.978
303.15 K, x2 = 0.6069 | 780.477
303.15 K, x2 = 0.6491 | 782.394
303.15 K, x2 = 0.7005 | 784.812
303.15 K, x2 = 0.7451 | 787.095
303.15 K, x2 = 0.8001 | 789.991
303.15 K, x2 = 0.8482 | 792.622
303.15 K, x2 = 0.899 | 795.603
303.15 K, x2 = 0.9494 | 798.7

CCCCOCCCC [dibutyl ether]
[2]
Settings | mass density [kg/m3] | speed of sound [m/s]
293.15 K | 768.468 | 1181.8
298.15 K | 764.17 | 1161.2
303.15 K | 759.829 | 1142.1

CCCCOCCCC [dibutyl ether] + CCCCCCO
[1]
Settings | mass density [kg/m3]
293.15 K, x2 = 0.1135 | 773.646
293.15 K, x2 = 0.1548 | 775.499
293.15 K, x2 = 0.1968 | 777.383
293.15 K, x2 = 0.2469 | 779.653
293.15 K, x2 = 0.2969 | 781.94
293.15 K, x2 = 0.347 | 784.277
293.15 K, x2 = 0.4017 | 786.883
293.15 K, x2 = 0.4491 | 789.183
293.15 K, x2 = 0.4976 | 791.595
293.15 K, x2 = 0.5487 | 794.145
293.15 K, x2 = 0.6 | 796.77
293.15 K, x2 = 0.6466 | 799.236
293.15 K, x2 = 0.6987 | 802
293.15 K, x2 = 0.7487 | 804.703
293.15 K, x2 = 0.8001 | 807.53
293.15 K, x2 = 0.8478 | 810.199
293.15 K, x2 = 0.8994 | 813.126
293.15 K, x2 = 0.95 | 816.052
298.15 K, x2 = 0.0541 | 766.673
298.15 K, x2 = 0.0997 | 768.754
298.15 K, x2 = 0.15 | 771.046
298.15 K, x2 = 0.1969 | 773.192
298.15 K, x2 = 0.2918 | 777.553
298.15 K, x2 = 0.3499 | 780.298
298.15 K, x2 = 0.3992 | 782.683
298.15 K, x2 = 0.4465 | 785.027
298.15 K, x2 = 0.4986 | 787.645
298.15 K, x2 = 0.5482 | 790.177
298.15 K, x2 = 0.5981 | 792.753
298.15 K, x2 = 0.6444 | 795.225
298.15 K, x2 = 0.6961 | 798.006
298.15 K, x2 = 0.7483 | 800.877
298.15 K, x2 = 0.799 | 803.718
298.15 K, x2 = 0.8524 | 806.753
298.15 K, x2 = 0.9 | 809.499
298.15 K, x2 = 0.9492 | 812.385
303.15 K, x2 = 0.0543 | 762.348
303.15 K, x2 = 0.099 | 764.409
303.15 K, x2 = 0.2007 | 769.103
303.15 K, x2 = 0.251 | 771.443
303.15 K, x2 = 0.3035 | 773.93
303.15 K, x2 = 0.3511 | 776.214
303.15 K, x2 = 0.3985 | 778.537
303.15 K, x2 = 0.4482 | 781.018
303.15 K, x2 = 0.4989 | 783.601
303.15 K, x2 = 0.5501 | 786.255
303.15 K, x2 = 0.5984 | 788.815
303.15 K, x2 = 0.6564 | 791.951
303.15 K, x2 = 0.6982 | 794.233
303.15 K, x2 = 0.7491 | 797.128
303.15 K, x2 = 0.7991 | 799.914
303.15 K, x2 = 0.849 | 802.8
303.15 K, x2 = 0.8961 | 805.567
303.15 K, x2 = 0.9505 | 808.803

CCCCOCCCC [dibutyl ether] + CCCCCO
[1]
Settings | mass density [kg/m3]
293.15 K, x2 = 0.0993 | 772.147
293.15 K, x2 = 0.1509 | 774.059
293.15 K, x2 = 0.1989 | 775.841
293.15 K, x2 = 0.2498 | 777.791
293.15 K, x2 = 0.2983 | 779.683
293.15 K, x2 = 0.3468 | 781.629
293.15 K, x2 = 0.3961 | 783.67
293.15 K, x2 = 0.4504 | 785.99
293.15 K, x2 = 0.5527 | 790.629
293.15 K, x2 = 0.5997 | 792.852
293.15 K, x2 = 0.651 | 795.356
293.15 K, x2 = 0.6975 | 797.695
293.15 K, x2 = 0.7501 | 800.433
293.15 K, x2 = 0.7985 | 803.03
293.15 K, x2 = 0.8506 | 805.928
293.15 K, x2 = 0.9 | 808.751
298.15 K, x2 = 0.0486 | 766.003
298.15 K, x2 = 0.0986 | 767.846
298.15 K, x2 = 0.1521 | 769.844
298.15 K, x2 = 0.2022 | 771.744
298.15 K, x2 = 0.252 | 773.657
298.15 K, x2 = 0.2996 | 775.544
298.15 K, x2 = 0.3515 | 777.661
298.15 K, x2 = 0.3997 | 779.682
298.15 K, x2 = 0.4497 | 781.857
298.15 K, x2 = 0.4986 | 784.078
298.15 K, x2 = 0.4987 | 788.132
298.15 K, x2 = 0.5487 | 786.388
298.15 K, x2 = 0.5982 | 788.753
298.15 K, x2 = 0.6496 | 791.307
298.15 K, x2 = 0.6966 | 793.726
298.15 K, x2 = 0.7484 | 796.453
298.15 K, x2 = 0.799 | 799.243
298.15 K, x2 = 0.8506 | 802.115
298.15 K, x2 = 0.9002 | 805.013
298.15 K, x2 = 0.949 | 807.933
298.15 K, x2 = 0.9491 | 811.645
303.15 K, x2 = 0.0495 | 761.694
303.15 K, x2 = 0.1034 | 763.696
303.15 K, x2 = 0.1526 | 765.548
303.15 K, x2 = 0.2049 | 767.554
303.15 K, x2 = 0.2523 | 769.408
303.15 K, x2 = 0.2985 | 771.264
303.15 K, x2 = 0.3486 | 773.336
303.15 K, x2 = 0.399 | 775.471
303.15 K, x2 = 0.4497 | 777.705
303.15 K, x2 = 0.4978 | 779.891
303.15 K, x2 = 0.5493 | 782.353
303.15 K, x2 = 0.6003 | 784.842
303.15 K, x2 = 0.6499 | 787.293
303.15 K, x2 = 0.6988 | 789.821
303.15 K, x2 = 0.7492 | 792.539
303.15 K, x2 = 0.8001 | 795.362
303.15 K, x2 = 0.851 | 798.284
303.15 K, x2 = 0.8974 | 801.027
303.15 K, x2 = 0.9493 | 804.201
